Measured values taken from patent US10670605B2, “Cysteine reactive probes and uses thereof” (The Scripps Research Institute, priority 2015, dated 2020).

Sequences of proteins named here, by UniProt entry; tags and fusion partners are left off. A change or cut given only in a name is not applied to a line headed by its entry. Residues count along the entry.
UniProt Q14790, 385-479 limits assumed: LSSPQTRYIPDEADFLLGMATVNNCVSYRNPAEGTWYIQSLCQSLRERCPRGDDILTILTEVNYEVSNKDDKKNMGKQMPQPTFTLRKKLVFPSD
UniProt Q14790, 217-374 limits assumed: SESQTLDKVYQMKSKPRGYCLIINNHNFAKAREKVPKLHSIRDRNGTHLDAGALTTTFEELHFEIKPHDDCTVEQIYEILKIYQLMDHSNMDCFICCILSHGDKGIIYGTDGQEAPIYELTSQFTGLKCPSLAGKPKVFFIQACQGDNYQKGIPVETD
UniProt Q14790, 217-479 D374A/D384A limits assumed: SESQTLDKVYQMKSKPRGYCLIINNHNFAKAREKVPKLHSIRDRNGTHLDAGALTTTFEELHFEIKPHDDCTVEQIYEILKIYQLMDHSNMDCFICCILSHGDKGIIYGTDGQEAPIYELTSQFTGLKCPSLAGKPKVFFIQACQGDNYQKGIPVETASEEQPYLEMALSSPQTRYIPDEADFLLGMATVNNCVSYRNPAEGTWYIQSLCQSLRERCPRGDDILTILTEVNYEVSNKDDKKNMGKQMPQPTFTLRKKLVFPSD
UniProt Q14790, 217-479 limits assumed: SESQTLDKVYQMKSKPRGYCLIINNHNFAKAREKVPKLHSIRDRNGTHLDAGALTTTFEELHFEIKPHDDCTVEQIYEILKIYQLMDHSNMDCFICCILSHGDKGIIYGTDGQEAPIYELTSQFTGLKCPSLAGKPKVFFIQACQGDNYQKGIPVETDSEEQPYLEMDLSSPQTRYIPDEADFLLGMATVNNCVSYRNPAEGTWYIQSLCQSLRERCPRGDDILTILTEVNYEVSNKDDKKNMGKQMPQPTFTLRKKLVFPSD
UniProt Q92851, 220-521 limits assumed: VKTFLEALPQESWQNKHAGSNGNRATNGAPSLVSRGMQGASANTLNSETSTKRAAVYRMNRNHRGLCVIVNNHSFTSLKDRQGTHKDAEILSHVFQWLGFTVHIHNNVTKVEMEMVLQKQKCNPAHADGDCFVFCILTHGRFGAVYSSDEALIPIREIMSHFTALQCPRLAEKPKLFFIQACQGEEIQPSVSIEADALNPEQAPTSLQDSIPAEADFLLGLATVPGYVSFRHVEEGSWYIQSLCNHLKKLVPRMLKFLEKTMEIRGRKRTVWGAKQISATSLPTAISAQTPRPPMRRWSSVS
UniProt P55210: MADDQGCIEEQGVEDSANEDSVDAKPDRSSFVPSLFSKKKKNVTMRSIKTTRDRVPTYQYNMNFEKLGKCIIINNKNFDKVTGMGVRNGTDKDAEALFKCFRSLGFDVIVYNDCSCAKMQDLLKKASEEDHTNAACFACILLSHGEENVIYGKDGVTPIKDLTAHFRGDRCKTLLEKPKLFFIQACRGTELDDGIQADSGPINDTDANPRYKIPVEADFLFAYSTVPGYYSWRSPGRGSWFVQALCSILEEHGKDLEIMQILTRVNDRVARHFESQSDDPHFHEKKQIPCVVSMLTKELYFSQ
UniProt P42575: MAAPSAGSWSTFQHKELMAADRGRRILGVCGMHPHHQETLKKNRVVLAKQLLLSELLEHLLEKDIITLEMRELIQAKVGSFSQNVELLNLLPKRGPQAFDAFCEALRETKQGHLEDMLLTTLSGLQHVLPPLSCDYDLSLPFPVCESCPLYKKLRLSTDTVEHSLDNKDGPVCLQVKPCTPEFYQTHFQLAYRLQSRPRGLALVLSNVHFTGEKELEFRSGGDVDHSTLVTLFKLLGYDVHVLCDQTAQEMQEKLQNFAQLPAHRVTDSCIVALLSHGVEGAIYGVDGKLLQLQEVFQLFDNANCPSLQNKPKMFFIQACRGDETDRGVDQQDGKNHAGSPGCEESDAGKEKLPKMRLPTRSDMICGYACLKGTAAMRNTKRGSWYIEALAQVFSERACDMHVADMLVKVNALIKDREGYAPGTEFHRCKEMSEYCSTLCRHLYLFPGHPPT
UniProt P24752, 34-427 limits assumed: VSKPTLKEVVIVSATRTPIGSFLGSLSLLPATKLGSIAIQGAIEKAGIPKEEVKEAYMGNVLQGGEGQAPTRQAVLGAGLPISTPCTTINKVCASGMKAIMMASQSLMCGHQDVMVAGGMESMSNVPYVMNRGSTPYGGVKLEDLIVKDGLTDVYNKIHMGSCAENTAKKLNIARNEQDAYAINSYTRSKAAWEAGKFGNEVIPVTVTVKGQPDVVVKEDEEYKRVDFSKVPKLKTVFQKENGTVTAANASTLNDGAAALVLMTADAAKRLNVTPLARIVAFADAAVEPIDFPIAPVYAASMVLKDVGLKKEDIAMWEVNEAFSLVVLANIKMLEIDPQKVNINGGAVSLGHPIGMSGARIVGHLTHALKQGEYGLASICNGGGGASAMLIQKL
UniProt P19447: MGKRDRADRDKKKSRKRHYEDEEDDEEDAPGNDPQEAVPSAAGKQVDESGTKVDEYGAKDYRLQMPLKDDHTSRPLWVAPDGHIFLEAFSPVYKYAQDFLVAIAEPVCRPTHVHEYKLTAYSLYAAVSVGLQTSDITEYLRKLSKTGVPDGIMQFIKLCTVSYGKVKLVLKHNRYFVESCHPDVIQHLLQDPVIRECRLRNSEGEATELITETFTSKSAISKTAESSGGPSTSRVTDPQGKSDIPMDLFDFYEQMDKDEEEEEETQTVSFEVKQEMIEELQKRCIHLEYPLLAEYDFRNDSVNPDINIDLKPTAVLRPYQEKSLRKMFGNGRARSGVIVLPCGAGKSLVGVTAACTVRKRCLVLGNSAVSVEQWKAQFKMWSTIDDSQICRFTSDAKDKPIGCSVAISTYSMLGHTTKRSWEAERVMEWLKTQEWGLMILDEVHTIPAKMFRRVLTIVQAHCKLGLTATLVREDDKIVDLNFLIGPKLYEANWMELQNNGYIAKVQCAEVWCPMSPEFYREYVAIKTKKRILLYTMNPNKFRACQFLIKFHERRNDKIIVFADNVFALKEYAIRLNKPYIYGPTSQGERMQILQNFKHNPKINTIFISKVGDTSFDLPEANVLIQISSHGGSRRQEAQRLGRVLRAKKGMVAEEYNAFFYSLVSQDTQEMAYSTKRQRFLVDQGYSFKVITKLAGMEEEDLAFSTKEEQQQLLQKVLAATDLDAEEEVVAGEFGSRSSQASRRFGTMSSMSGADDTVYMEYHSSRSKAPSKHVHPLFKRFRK

Columns and labels:
Jurkat cells [1] = experiment: Staurosporine-induced (intrinsic) apoptosis, CellTiter-Glo viability; type: cell-based, human; conditions: 30 μM (VAD-FMK 100 μM), 30 min before STS, 6 h
Description: 4 mL of Jurkat cells in RPMI (1.5 million cells/mL) were treated with the indicated compound at 30 μM for 30 min (50 mM stock solution in DMSO). Z-VAD-FMK (EMD Millipore Biosciences, 627610) and was used at a final concentration of 100 μM. After pre-incubation, FASL (4 μL of […] stock solution of SuperFasLigandm in water, final concentration=100 ng/mL, Enzo life Sciences) or staurosporine (8 μL of 1 mM stock solution in DMSO, final concentration=2 μM, Fisher Scientific, 50664333). […] The gels were transferred to nitrocellulose membranes and were immunoblotted overnight with the indicated antibodies. For measurements of cell viability, in quadruplicate for each condition, 150,000 cells (100 μL of 1.5 million cells/mL) were plated in Nunc™ MicroWell™ 96-Well Optical-Bottom Plates with Polymer Base (Fisher Scientific). Compounds, FASL and STS were used at the same concentrations indicated above with a 30 minute pre-incubation with compound, followed by 6 hours with either STS or FASL or DMSO. Cell viability was measured with CellTiter-Glo® Luminescent Cell Viability Assay (Promega) and was read on a Biotech Synergy 4 plate reader.

active CASP8 C360 = active CASP8 C360 (Homo sapiens, UniProt Q14790); experiment: isoTOP-ABPP of recombinant caspase added to cell lysate; conditions: 30 μM, 1 h, recombinant protein in cell lysate
pro-CASP8 C360 = pro-CASP8 C360 (Homo sapiens, UniProt Q14790, D374A/D384A); experiment: as above; conditions: 30 μM, 1 h, recombinant protein in cell lysate
[2] = tested on: cysteines in MDA-MB-231 and Ramos cell proteomes; experiment: Competitive isoTOP-ABPP in cell lysates (in vitro): proteomic reactivity / liganded cysteine rate; type: binding, human; conditions: fragment 500 μM; % of quantified cysteines with R ≥4
Description: All cell lines were obtained from ATCC, were used with a low passage number and were grown at 37° C. with 5% CO2. MDA-MB-231 cells and HEK-293T cells were grown in DMEM supplemented with 10% fetal bovine serum, penicillin, streptomycin and glutamine. Jurkat, Ramos and MUM2C cells were grown in RPMI-1640 medium supplemented with 10% fetal bovine serum, penicillin and streptomycin. For in vitro labeling, cells were grown to 100% confluence for MDA-MB-231 cells or until cell density reached 1.5 million cells/mL for Ramos and Jurkat cells. […] Cell pellets were lysed by sonication and fractionated (100,000 g, 45 min) to yield soluble and membrane fractions, which were then adjusted to a final protein concentration of 1.5 mg/mL for proteomics experiments and 1 mg/mL for gel-based ABPP experiments. The soluble lysate was prepared fresh from frozen pellets directly before each experiment. Protein concentration was determined using the Bio-Rad DC™ protein assay kit.
For each sample, 100 μL of streptavidin-agarose beads slurry (Pierce) was washed in 10 mL PBS and then resuspended in 5 mL PBS. The SDS-solubilized proteins were added to the suspension of streptavidin-agarose beads and the bead mixture was rotated for 3 h at ambient temperature. After incubation, the beads were pelleted by centrifugation (1,400 g, 3 min) and were washed (2×10 mL PBS and 2×10 mL water). […]

Jurkat cells [3] = experiment: FasL-induced (extrinsic) apoptosis, CellTiter-Glo viability; type: cell-based, human; conditions: 30 μM (VAD-FMK 100 μM), 30 min before FASL, 6 h
CASP8 = CASP8 (Homo sapiens, UniProt Q14790); experiment: Quantitative proteomics (ABPP-SILAC) with probe 61 in cells; type: cell-based
CASP10 = CASP10 (Homo sapiens, UniProt Q92851); experiment: as above; type: cell-based
CASP7 C186 = CASP7 C186 (Homo sapiens, UniProt P55210); experiment: Competitive isoTOP-ABPP, Jurkat cell lysates; type: binding; conditions: 50 μM, 1 h
CASP2 C320 = CASP2 C320 (Homo sapiens, UniProt P42575); experiment: Competitive isoTOP-ABPP, Jurkat cell lysates; type: binding; conditions: 50 μM, 1 h
ACAT1 C196 (P24752) = ACAT1 C196 (P24752) (Homo sapiens, UniProt P24752); experiment: Competitive isoTOP-ABPP, cell lysates; type: binding; conditions: 500 μM, invitro, 231
ACAT1 C413 (P24752) = ACAT1 C413 (P24752) (Homo sapiens, UniProt P24752); experiment: Competitive isoTOP-ABPP, cell lysates; type: binding; conditions: 500 μM, invitro, 231
ACAT1 C126 (P24752) = ACAT1 C126 (P24752) (Homo sapiens, UniProt P24752); experiment: Competitive isoTOP-ABPP, cell lysates; type: binding; conditions: 500 μM, invitro, 231
ACAT1 C119 (P24752) = ACAT1 C119 (P24752) (Homo sapiens, UniProt P24752); experiment: Competitive isoTOP-ABPP, cell lysates; type: binding; conditions: 500 μM, invitro
ERCC3 C342 (P19447) = ERCC3 C342 (P19447) (Homo sapiens, UniProt P19447); experiment: Competitive isoTOP-ABPP, cell lysates; type: binding; conditions: 500 μM, invitro
[4] = primary human T cells and Jurkat cells

O=C(c1ccccc1)N1CCC(N(C(=O)CCl)c2ccccc2)CC1
STS-induced intrinsic apoptosis (Jurkat cells [1]): did not block | R value (DMSO/fragment), C360 of active CASP8 (active CASP8 C360): 1.9 | R value (DMSO/fragment), C360 of pro-CASP8 (pro-CASP8 C360): 10 | proteomic reactivity value (liganded cysteine rate) [2]: 3% | FasL-induced apoptosis (Jurkat cells [3]): completely blocked | inhibition of CASP8 in cells (probe 61 proteomics) (CASP8; Jurkat cells): fully inhibited | blockade of CASP8 (chemical proteomics with probe 61) (CASP8; [4]): blocked | inhibition of CASP10 in cells (probe 61 proteomics) (CASP10; Jurkat cells): fully inhibited | blockade of CASP10 (chemical proteomics with probe 61) (CASP10; [4]): blocked | IA-alkyne labeling of endogenous CASP7 (CASP7 C186): not observed | IA-alkyne labeling of endogenous CASP2 (CASP2 C320): not observed | isoTOP-ABPP ratio, P24752_C196 (ACAT1 C196 (P24752)): 1.9 | isoTOP-ABPP ratio, P24752_C413 (ACAT1 C413 (P24752)): 4.2 | isoTOP-ABPP ratio, P24752_C126 (ACAT1 C126 (P24752)): 2.2 | isoTOP-ABPP ratio, P24752_C119 (ACAT1 C119 (P24752); 231): 2.3 | isoTOP-ABPP ratio, P24752_C119 (ACAT1 C119 (P24752); ramos): 2.0 | isoTOP-ABPP ratio, P19447_C342 (ERCC3 C342 (P19447); 231): 1.3 | isoTOP-ABPP ratio, P19447_C342 (ERCC3 C342 (P19447); ramos): 2.0
